{
  "source": "paper PMC9971260",
  "about": "(Scientific Reports, 2023)",
  "origin": "cited, not measured here",
  "tested_on": "COX-2",
  "conditions": "Coxibs, selective COX-2 inhibition; no reference given; cited from earlier work",
  "data": [
    {"smiles": "Cc1onc(-c2ccccc2)c1-c1ccc(S(N)(=O)=O)cc1", "note": "[valdecoxib]", "values": [
      {"measurement": "IC50 against COX-2 (in words)", "value": "low-nanomolar"}
    ]}
  ]
}
